The target in experiment [1] is T1, HER4: human epidermal growth factor receptor 4 (Homo sapiens, UniProt Q15303).
T1 construct: purchased Carna
Nature of the experiment: In vitro enzyme inhibitory activity (Caliper, FAM labeled peptide). The experiment is classed as biochemical. Particulars: HER4 kinase, 28° C., 1 h.

Protein sequences, listed by entry. Tags and fused reporters are not part of them. Residues count along the entry.
UniProt Q15303, 26-1308: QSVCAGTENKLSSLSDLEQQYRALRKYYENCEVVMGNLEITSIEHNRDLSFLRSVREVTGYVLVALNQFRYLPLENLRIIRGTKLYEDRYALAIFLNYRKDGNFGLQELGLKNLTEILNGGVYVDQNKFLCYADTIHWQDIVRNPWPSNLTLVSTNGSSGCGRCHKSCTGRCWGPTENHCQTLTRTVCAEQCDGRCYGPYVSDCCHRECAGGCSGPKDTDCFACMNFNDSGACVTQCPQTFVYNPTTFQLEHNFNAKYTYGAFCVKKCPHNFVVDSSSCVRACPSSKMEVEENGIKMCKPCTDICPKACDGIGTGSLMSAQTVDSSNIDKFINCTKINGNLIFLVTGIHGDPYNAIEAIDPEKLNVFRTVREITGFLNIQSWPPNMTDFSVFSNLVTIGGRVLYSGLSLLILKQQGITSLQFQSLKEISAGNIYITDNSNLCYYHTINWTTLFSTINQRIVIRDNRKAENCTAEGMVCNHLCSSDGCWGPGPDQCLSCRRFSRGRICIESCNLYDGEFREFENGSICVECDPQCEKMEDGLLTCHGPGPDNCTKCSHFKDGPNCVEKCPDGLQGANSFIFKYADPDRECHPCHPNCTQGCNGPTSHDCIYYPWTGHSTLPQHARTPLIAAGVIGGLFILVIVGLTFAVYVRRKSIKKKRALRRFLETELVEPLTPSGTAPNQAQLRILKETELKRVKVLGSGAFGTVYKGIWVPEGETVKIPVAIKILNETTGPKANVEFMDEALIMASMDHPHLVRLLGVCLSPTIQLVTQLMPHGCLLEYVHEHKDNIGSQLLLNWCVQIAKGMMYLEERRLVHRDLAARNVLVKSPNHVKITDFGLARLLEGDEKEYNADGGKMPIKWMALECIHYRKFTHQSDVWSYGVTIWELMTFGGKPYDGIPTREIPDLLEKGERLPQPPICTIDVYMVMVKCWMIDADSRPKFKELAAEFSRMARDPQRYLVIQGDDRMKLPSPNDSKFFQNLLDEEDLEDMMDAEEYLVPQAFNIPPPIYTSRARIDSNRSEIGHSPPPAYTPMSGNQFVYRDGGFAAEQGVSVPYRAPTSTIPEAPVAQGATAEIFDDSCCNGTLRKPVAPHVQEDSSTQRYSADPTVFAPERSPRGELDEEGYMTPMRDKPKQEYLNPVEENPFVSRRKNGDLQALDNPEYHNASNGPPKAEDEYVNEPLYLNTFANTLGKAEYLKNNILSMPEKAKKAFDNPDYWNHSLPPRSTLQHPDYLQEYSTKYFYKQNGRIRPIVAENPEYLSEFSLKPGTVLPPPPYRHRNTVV
UniProt P04626, 23-1255: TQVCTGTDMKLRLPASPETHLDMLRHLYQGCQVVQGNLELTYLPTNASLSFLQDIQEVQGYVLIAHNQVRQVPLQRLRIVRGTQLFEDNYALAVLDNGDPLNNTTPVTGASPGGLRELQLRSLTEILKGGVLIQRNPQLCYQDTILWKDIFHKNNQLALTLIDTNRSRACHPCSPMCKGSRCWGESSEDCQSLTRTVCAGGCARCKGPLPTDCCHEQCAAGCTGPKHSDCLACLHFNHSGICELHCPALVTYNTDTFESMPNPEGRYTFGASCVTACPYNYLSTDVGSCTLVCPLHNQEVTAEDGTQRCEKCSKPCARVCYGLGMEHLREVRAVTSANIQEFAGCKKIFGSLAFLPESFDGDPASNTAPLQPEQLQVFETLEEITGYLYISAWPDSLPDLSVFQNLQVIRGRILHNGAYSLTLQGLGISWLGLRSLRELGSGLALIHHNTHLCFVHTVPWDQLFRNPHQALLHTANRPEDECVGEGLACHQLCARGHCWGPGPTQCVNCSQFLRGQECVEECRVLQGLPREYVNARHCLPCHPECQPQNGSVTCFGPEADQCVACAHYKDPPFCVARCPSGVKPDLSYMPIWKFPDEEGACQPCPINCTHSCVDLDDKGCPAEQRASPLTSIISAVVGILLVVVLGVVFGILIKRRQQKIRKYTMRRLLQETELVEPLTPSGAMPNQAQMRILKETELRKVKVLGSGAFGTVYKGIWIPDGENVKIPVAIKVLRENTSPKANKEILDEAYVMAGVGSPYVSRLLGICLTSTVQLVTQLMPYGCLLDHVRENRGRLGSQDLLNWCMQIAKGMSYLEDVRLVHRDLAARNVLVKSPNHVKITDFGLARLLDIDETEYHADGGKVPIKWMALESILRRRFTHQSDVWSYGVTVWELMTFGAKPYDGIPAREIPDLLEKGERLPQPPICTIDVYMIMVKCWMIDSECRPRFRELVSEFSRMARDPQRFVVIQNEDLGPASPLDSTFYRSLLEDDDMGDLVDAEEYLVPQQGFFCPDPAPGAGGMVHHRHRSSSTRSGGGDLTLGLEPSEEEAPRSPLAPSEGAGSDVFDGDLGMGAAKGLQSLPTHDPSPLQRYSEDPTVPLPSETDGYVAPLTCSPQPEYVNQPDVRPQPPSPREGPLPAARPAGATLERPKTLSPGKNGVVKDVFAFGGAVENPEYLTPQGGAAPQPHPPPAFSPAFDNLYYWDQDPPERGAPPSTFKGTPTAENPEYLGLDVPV

For experiment [2], the target named is T2, HER2: human epidermal growth factor receptor 2 (Homo sapiens, UniProt P04626).
T2 construct: purchased Carna
The experiment is described as above. In kind it is biochemical. To be noted: HER2 kinase, 28° C., 1 h.

Experimental findings from patent publication US9956222B2, “Quinazoline derivative as tyrosine-kinase inhibitor, preparation method therefor and application thereof” (Xuanzhu Pharma Co., Ltd., priority 2011, dated 2018) are described below.

The IC50 is the concentration needed to halve the response being measured. Low values mean inhibition by little substance, high ones a need for much substance.

For `COc1cc2ncnc(Nc3ccc(F)c(Cl)c3)c2cc1NC(=O)/C=C/CN1CCCCC1` [PF-00299804, reference compound], the IC50 in experiment [1] worked out at 1.7 nM; in experiment [2], 11 nM.
